Test results: paper PMC11528023, “Transport mechanism and structural pharmacology of human urate transporter URAT1” (Cell Research, 2024)
pIC50: −log10 of the molar value.

Protein sequences, listed by entry. Tags and fused reporters are not part of them. Chains listed by the source or under a name are the forms on record and can include a tag or linker.
UniProt Q96S37, with tags, fused parts or gaps with the stated changes: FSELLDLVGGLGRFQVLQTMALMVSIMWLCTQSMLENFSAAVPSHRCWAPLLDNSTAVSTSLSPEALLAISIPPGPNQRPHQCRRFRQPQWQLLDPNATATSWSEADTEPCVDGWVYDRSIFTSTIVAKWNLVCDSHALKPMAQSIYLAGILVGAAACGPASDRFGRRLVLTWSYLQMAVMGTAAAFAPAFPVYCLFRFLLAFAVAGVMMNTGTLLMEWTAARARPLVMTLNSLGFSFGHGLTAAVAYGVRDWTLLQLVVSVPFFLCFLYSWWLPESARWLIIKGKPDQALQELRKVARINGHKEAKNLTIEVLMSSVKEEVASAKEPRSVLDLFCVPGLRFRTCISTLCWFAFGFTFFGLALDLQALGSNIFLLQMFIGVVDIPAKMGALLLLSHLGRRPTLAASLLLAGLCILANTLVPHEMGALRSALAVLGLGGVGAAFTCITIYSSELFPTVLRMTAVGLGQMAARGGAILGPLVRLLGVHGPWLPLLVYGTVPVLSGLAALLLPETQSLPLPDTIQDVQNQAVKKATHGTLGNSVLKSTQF

Legend:
Format in all cases: cell-based
URAT1EM = molecular target: T1, URAT1EM (Homo sapiens, UniProt Q96S37, A280P/A304R/A323S/A335R/D313K/DEL311-312/DEL60-62/G295A/G309E/G331A/G338L/G65T/I63V/INS307H/L287I/L292P/L321M/L328V/L337V/L341F/L64S/M324V/M330S/M343V/P317I/P333E/Q332K/R291K/R301K/R325K/R342C/S329A/T288I/T289K/T314N/T339D/W294Q/W300R); assay: 14C-urate uptake in HEK293 cells expressing URAT1EM (cryo-EM construct)
T1 construct: human URAT1 (residues 3–553), a (GGGGS)3 linker, and C-terminal DARPinoff7; expressed in transfected cells; host or cells: HEK293 cells (ATCC, CRL-3216), transient transfection

URAT1WT [1] = molecular target: T2, URAT1WT (Homo sapiens, UniProt Q96S37); assay: 14C-urate uptake inhibition in HEK293 cells expressing WT URAT1; set-up: expressed in transfected cells; host or cells: HEK293 cells (ATCC, CRL-3216), transient transfection with Lipofectamine 3000; conditions: inhibition of 14C-urate uptake, HEK293 cells, 400 µM urate, 20 min, 37 °C
URAT1WT [2] = molecular target: T2, URAT1WT; assay: as above; conditions: IC50 of the WT URAT1 (comparator for F365Y), inhibition of 14C-urate uptake, Fig. 5g comparator as printed in text

In the case of `O=C(O)CSc1nnc(Br)n1-c1ccc(C2CC2)c2ccccc12` [lesinurad], the pIC50 (URAT1EM) was 4.41, the pIC50 (URAT1WT [1]) was 4.18 and the pIC50 (URAT1WT [2]) was 4.41.
